Source: patent US20110105565A1, “WATER SOLUBLE SMALL MOLECULE INHIBITORS OF THE CYSTIC FIBROSIS TRANSMEMBRANE CONDUCTANCE REGULATOR” (THE REGENTS OF THE UNIVERSITY OF CALIFORNIA, priority 2008, published 2011)

Amino acid sequences for entries named in this document (tags omitted).
UniProt P13569, whole entry: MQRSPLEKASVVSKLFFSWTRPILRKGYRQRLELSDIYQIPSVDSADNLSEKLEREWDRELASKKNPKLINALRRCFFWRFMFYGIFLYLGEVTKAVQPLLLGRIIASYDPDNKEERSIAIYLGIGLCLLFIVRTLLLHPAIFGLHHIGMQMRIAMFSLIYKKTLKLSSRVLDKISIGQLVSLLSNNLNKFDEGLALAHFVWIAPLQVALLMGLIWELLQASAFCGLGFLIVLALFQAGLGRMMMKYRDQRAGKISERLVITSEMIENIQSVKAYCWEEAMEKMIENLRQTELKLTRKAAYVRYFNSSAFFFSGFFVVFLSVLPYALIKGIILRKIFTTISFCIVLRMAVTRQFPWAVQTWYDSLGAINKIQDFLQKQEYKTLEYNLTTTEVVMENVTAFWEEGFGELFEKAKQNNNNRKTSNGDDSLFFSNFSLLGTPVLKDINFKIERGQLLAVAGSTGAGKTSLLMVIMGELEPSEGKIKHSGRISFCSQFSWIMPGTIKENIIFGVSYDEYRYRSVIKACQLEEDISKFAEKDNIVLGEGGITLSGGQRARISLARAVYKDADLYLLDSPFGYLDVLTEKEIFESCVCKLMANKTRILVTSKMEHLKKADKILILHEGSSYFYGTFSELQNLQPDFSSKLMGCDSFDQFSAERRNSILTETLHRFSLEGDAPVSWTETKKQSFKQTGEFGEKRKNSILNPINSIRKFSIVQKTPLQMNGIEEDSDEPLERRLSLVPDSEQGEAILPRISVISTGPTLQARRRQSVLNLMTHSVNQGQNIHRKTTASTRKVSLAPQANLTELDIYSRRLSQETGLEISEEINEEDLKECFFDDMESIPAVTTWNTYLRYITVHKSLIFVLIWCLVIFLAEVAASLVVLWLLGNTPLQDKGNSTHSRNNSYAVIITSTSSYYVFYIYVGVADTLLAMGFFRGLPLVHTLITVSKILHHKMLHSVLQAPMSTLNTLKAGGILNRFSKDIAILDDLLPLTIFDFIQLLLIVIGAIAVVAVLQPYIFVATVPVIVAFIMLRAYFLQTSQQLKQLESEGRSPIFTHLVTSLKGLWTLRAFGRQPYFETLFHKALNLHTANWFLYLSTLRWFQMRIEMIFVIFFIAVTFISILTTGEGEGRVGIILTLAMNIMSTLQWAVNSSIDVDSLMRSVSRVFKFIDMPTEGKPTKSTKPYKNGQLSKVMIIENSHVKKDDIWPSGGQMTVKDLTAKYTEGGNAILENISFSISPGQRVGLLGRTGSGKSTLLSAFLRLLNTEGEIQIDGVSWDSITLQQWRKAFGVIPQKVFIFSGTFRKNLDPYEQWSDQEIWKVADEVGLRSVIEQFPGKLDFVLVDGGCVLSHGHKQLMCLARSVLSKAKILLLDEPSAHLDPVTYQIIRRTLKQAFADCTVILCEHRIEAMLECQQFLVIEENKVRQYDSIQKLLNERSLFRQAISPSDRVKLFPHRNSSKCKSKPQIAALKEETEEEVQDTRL

Target: human wildtype CFTR (Homo sapiens, UniProt P13569)
Assay: Fluorescence cell-based assay of CFTR inhibition (YFP iodide influx, FRT cells)
Parameters: expressed in transfected cells; host or cells: Fisher rat thyroid (FRT) cells
Conditions: structure-activity discussion
Description: Fluorescence cell-based assay of CFTR inhibition. CFTR inhibition by thiazolidinone derivative compounds was determined by a fluorescence cell-based assay utilizing doubly transfected cells expressing human wild-type CFTR and a yellow fluorescent protein (YFP) iodide sensor, as described (see, e.g., Galietta, et al., J. Physiol. 281:C1734-C1742 (2001)). Fisher rat thyroid (FRT) cells stably expressing wild-type human CFTR and YFP-H148Q were cultured on 96-well black-wall plates as described (see, e.g., Ma, et al., J. Clin. Invest. 110:1651-1658 (2002)). Cells in 96-well plates were washed three times, and then CFTR was activated by incubation for 15 minutes with an activating cocktail containing 10 μM forskolin, 20 μM apigenin, and 100 μM IBMX. Test compounds were added 5 minutes before assay of iodide influx in which cells were exposed to a 100 mM inwardly directed iodide gradient. YFP fluorescence was recorded for 2 seconds before and 12 seconds after creation of the iodide gradient. Initial rates of iodide influx were computed from the time course of decreasing fluorescence after the iodide gradient.
CFTR-facilitated iodide influx following extracellular iodide addition results in quenching of cytoplasmic YFP fluorescence.

Substance: (Z)-4-((2,4-dioxo-3-(3- (trifluoromethyl) phenyl) thiazolidin-5- ylidene)methyl)benzoic acid [Compound 47]
- CFTR inhibitory activity (in words): inactive
